Data as given in PubChem BioAssay (NCI).
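Protocol summary: plate cells (96-well), add compound at 5 concentrations, incubate 48 h, interpolate endpoints linearly. At the GI50, growth is halved.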

Assays:
Assay in all cases: NCI tumour cell line growth inhibition, 48 h; in the data active = GI50 below about 0.43 µM; inactive = the rest
T-47D breast = test system: T-47D breast
OVCAR-5 ovarian = test system: OVCAR-5 ovarian
KM12 colon = test system: KM12 colon
HOP-92 NSCLC = test system: HOP-92 NSCLC
CAKI-1 renal = test system: CAKI-1 renal
MOLT-4 leukemia = test system: MOLT-4 leukemia
A498 renal = test system: A498 renal
SF-268 CNS = test system: SF-268 CNS
EKVX NSCLC = test system: EKVX NSCLC
MDA-MB-231 breast = test system: MDA-MB-231 breast
SR leukemia = test system: SR leukemia
M14 melanoma = test system: M14 melanoma
UACC-62 melanoma = test system: UACC-62 melanoma
SF-539 CNS = test system: SF-539 CNS
UACC-257 melanoma = test system: UACC-257 melanoma
OVCAR-3 ovarian = test system: OVCAR-3 ovarian
SK-MEL-2 melanoma = test system: SK-MEL-2 melanoma
IGROV1 ovarian = test system: IGROV1 ovarian
RPMI-8226 leukemia = test system: RPMI-8226 leukemia
OVCAR-4 ovarian = test system: OVCAR-4 ovarian
BT-549 breast = test system: BT-549 breast
SNB-19 CNS = test system: SNB-19 CNS
HCT-15 colon = test system: HCT-15 colon
MDA-N = test system: MDA-N
SNB-75 CNS = test system: SNB-75 CNS
RXF 393 renal = test system: RXF 393 renal
NCI-H322M lung = test system: NCI-H322M lung
HOP-62 NSCLC = test system: HOP-62 NSCLC
SK-OV-3 ovarian = test system: SK-OV-3 ovarian
HS 578T breast = test system: HS 578T breast
NCI-H460 lung = test system: NCI-H460 lung
HCC-2998 colon = test system: HCC-2998 colon
NCI-H23 lung = test system: NCI-H23 lung
NCI-H522 lung = test system: NCI-H522 lung
MDA-MB-435 = test system: MDA-MB-435
SW-620 colon = test system: SW-620 colon
LOX IMVI melanoma = test system: LOX IMVI melanoma
786-0 renal = test system: 786-0 renal
HT29 colon = test system: HT29 colon
HL-60(TB) leukemia = test system: HL-60(TB) leukemia
SN12C renal = test system: SN12C renal
PC-3 prostate = test system: PC-3 prostate
COLO 205 colon = test system: COLO 205 colon
NCI/ADR-RES ovarian = test system: NCI/ADR-RES ovarian
HCT-116 colon = test system: HCT-116 colon
DU-145 prostate = test system: DU-145 prostate
A549 NSCLC = test system: A549 NSCLC
UO-31 renal = test system: UO-31 renal
K-562 leukemia = test system: K-562 leukemia
MALME-3M melanoma = test system: MALME-3M melanoma
SF-295 CNS = test system: SF-295 CNS
U251 CNS = test system: U251 CNS
CCRF-CEM leukemia = test system: CCRF-CEM leukemia
TK-10 renal = test system: TK-10 renal
MCF7 breast = test system: MCF7 breast
SK-MEL-5 melanoma = test system: SK-MEL-5 melanoma
NCI-H226 lung = test system: NCI-H226 lung
ACHN renal = test system: ACHN renal
OVCAR-8 ovarian = test system: OVCAR-8 ovarian

Measured: GI50

CN(C(=O)COc1cc(Cl)c(Cl)cc1Cl)[C@@H]1CCCC[C@@H]1N1CCCC1
inactive: T-47D breast 37.5 µM | OVCAR-5 ovarian 33 µM | KM12 colon 56.2 µM | HOP-92 NSCLC > 100 µM | CAKI-1 renal 85.3 µM | MOLT-4 leukemia > 100 µM | A498 renal 18 µM | SF-268 CNS 97.3 µM | EKVX NSCLC > 100 µM | MDA-MB-231 breast 38.3 µM | SR leukemia 42.4 µM | M14 melanoma 16.9 µM | UACC-62 melanoma 22.9 µM | SF-539 CNS 61.5 µM | UACC-257 melanoma 23.6 µM | OVCAR-3 ovarian 47.4 µM | SK-MEL-2 melanoma 22.3 µM | IGROV1 ovarian 77.4 µM | RPMI-8226 leukemia 32 µM | OVCAR-4 ovarian 39.9 µM | BT-549 breast 52.9 µM | SNB-19 CNS 88.6 µM | HCT-15 colon 43.1 µM | MDA-N 46.5 µM | SNB-75 CNS > 100 µM | RXF 393 renal 53.2 µM | NCI-H322M lung > 100 µM | HOP-62 NSCLC > 100 µM | SK-OV-3 ovarian > 100 µM | HS 578T breast 72.8 µM | NCI-H460 lung 33.3 µM | HCC-2998 colon 23.3 µM | NCI-H23 lung 57.7 µM | NCI-H522 lung 53.1 µM | MDA-MB-435 = 22.7 µM | SW-620 colon 80.7 µM | LOX IMVI melanoma 33.7 µM | 786-0 renal 37.4 µM | HT29 colon 26 µM | HL-60(TB) leukemia 28.3 µM | SN12C renal > 100 µM | PC-3 prostate 42.3 µM | COLO 205 colon 23 µM | NCI/ADR-RES ovarian 95.7 µM | HCT-116 colon 45.2 µM | DU-145 prostate > 100 µM | A549 NSCLC 50.2 µM | UO-31 renal 35.8 µM | K-562 leukemia 32.3 µM | MALME-3M melanoma > 100 µM | SF-295 CNS 19.4 µM | U251 CNS 54 µM | CCRF-CEM leukemia 44.9 µM | TK-10 renal 44.7 µM | MCF7 breast 30.2 µM | SK-MEL-5 melanoma 17.1 µM | NCI-H226 lung 81.7 µM | ACHN renal 58.1 µM | OVCAR-8 ovarian > 100 µM
